Measured values taken from PubChem BioAssay AID743214 (The Scripps Research Institute Molecular Screening Center, 2013).
The list shows a part of the results, in another mix than the full data. Calls of active or inactive are those of the source.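 How the source made its calls: active means mean triplicate inhibition above the solvent-only control wells' mean plus 3 SD (cut at about 12% in these data); inactive means the rest.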

Amino acid sequences for entries named in this document (tags omitted). Residues count along the entry.
UniProt P78536, 215-824 limits assumed: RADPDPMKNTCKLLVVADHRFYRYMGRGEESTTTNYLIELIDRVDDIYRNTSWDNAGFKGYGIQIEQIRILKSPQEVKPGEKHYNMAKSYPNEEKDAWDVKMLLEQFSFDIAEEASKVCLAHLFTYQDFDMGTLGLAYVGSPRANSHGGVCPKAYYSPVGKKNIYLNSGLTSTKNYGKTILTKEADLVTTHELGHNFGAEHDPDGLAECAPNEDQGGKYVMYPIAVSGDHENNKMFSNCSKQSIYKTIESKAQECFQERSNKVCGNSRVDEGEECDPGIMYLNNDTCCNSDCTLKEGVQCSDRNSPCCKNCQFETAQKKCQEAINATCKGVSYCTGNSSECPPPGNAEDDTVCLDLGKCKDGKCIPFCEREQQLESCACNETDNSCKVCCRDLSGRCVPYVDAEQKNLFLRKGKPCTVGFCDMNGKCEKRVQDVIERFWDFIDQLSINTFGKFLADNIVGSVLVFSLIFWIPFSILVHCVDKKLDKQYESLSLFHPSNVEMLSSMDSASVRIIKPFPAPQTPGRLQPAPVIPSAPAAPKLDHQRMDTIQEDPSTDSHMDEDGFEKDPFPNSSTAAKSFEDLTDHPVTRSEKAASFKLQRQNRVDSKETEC

Molecular target: Disintegrin and metalloproteinase domain-containing protein 17 (Homo sapiens) (UniProt P78536)
Test: inhibition of ADAM17 peptide cleavage – biochemical, QFRET, high throughput, counter-screen for ADAM10 exosite inhibitor project (AID 743214);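 further: 0% = DMSO wells and 100% = marimastat wells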
Conditions: EDANS fluorescence, at 6.95 µM, active compounds read high
Outline: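 System: ADAM17 protease, QFRET substrate; control set: marimastat 1 µM and DMSO wells; signal: EDANS fluorescence, excitation 359 nm, emission 460 nm; incubation: 30 min compound–enzyme preincubation, then 3 h reaction, both 25 °C; compound: single nominal compound dose of 6.95 µM; replicates: three repeats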

Structure (SMILES) | inhibition
CCCCn1nnnc1C(c1cccc2ccccc12)N1CCC(n2c(=O)[nH]c3ccccc32)CC1 (stereo unspecified) | inactive: 2.81%
